Yeast mating assay 1: variants of the scFv Ab-14

The measurements come from Engelhart et al. 2022 (doi:10.1038/s41597-022-01779-4) through the FLAb antibody collection.

The target is the same throughout: PDVDLGDISGINAS, from the HR2 region of SARS-CoV-2 spike.

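Phage display of a naive human antibody library on the peptide gave the parent. Library AAYL49 holds single substitutions and randomly drawn double and triple substitutions in the CDRs. Affinity was read by AlphaSeq, a pooled yeast mating assay with surface-displayed partners. Binding brings cells together so that they mate, and sequencing counts the barcode pairs among the diploids. Read counts were normalised to the haploid input and turned into Kd by a linear fit to BCL2-family pairs of known affinity, for each replicate. Mating was done three times.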

Parent scFv Ab-14: VH joined to VL by a 15-residue (Gly4Ser)3 linker. Changes lie in the heavy chain CDRs alone.
VH: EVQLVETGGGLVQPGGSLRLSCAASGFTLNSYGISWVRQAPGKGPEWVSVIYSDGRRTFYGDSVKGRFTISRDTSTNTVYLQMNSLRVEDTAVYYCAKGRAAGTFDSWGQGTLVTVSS
VL: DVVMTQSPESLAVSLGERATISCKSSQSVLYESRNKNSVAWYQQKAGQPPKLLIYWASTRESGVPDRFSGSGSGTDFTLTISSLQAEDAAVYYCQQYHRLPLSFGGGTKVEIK

Substitutions are numbered in sequence along the VH above, starting at 1 (not Kabat).
The Kd shown is the geometric mean over detected replicates; a lower Kd is a better binder.
"not detected" means that the variant was in the library but no mating with the target was seen in any replicate; the authors take this as a sign of poor binding, and no number exists.
Order: sorted from the lowest average up, undetected variants last.

{"changes": "N30K S53A K65D", "Kd (apparent)": "1.6 nM", "seen in": "3/3"}
{"changes": "D54N R56Y G99A", "Kd (apparent)": "750 nM", "seen in": "3/3"}
{"changes": "D62H V64Y G103P", "Kd (apparent)": "3.1 µM", "seen in": "1/3"}
{"changes": "G26H T28D I51P", "Kd (apparent)": "3.5 µM", "seen in": "1/3"}
{"changes": "G61Y D62E G103W", "Kd (apparent)": "4.7 µM", "seen in": "1/3"}
{"changes": "S31G S35I V50I", "Kd (apparent)": "10 µM", "seen in": "2/3"}
{"changes": "S35F S53Q F105C", "Kd (apparent)": "11 µM", "seen in": "1/3"}
{"changes": "S35W I51S A102N", "Kd (apparent)": "83 µM", "seen in": "3/3"}
{"changes": "N30L I51V F105E", "Kd (apparent)": "150 µM", "seen in": "1/3"}
{"changes": "S53H D54T S107N", "Kd (apparent)": "310 µM", "seen in": "1/3"}
{"changes": "Y32T R56C F59W", "Kd (apparent)": "not detected", "seen in": "0/3"}
{"changes": "S31W V64Q D106Q", "Kd (apparent)": "not detected", "seen in": "0/3"}
{"changes": "G55I S63W", "Kd (apparent)": "not detected", "seen in": "0/3"}
{"changes": "S35P G61D G103Q", "Kd (apparent)": "not detected", "seen in": "0/3"}
{"changes": "G33L D62W", "Kd (apparent)": "not detected", "seen in": "0/3"}
{"changes": "G33E S35I G99P", "Kd (apparent)": "not detected", "seen in": "0/3"}
{"changes": "S35W I51D D62F", "Kd (apparent)": "not detected", "seen in": "0/3"}
{"changes": "S53F V64W G99M", "Kd (apparent)": "not detected", "seen in": "0/3"}
{"changes": "S31M D54A V64L", "Kd (apparent)": "not detected", "seen in": "0/3"}
{"changes": "I51T G103F", "Kd (apparent)": "not detected", "seen in": "0/3"}
{"changes": "I34A D106M S107F", "Kd (apparent)": "not detected", "seen in": "0/3"}
{"changes": "F59G Y60V G99L", "Kd (apparent)": "not detected", "seen in": "0/3"}
{"changes": "D54Y Y60S D106L", "Kd (apparent)": "not detected", "seen in": "0/3"}

2 of these entries, quoted again:

{"changes": "S31W V64Q D106Q", "Kd (apparent)": "not detected", "seen in": "0/3"}
{"changes": "G26H T28D I51P", "Kd (apparent)": "3.5 µM", "seen in": "1/3"}

Parent in this assay: reference entry 4.4 nM, copy in this library 13 µM (one replicate of three).
Empty control strains, which show no peptide, gave a signal in 15% of pairings with library AAYL49; the median was 11 µM and 95% of these signals were weaker than 680 nM. No background was subtracted.